# From patent publication US20050221478A1, “Control of es cell self renewal and lineage specification, and medium therefor” (University of Edinburgh, priority 2002, published 2005)
# B1: BMP2: bone morphogenetic protein, known homologue of BMP4 (protein, UniProt P12643 283-396, looked up)
# Bone morphogenetic protein 2: QAKHKQRKRLKSSCKRHPLYVDFSDVGWNDWIVAPPGYHAFYCHGECPFPLADHLNSTNHAIVQTLVNSVNSKIPKACCVPTELSAISMLYLDENEKVVLKNYQDMVVEGCGCR
# Test system: ES cells
# Assay: Self-renewal of pluripotent cells with agonists of a receptor of the TGF-β superfamily or FGF receptor inhibitor
# Assay type: cell-based
molecule,measurement,value
B1,result as agonist of a receptor of the TGF-β superfamily for self-renewal,Good results
